Protein sequences, listed by entry. Tags and fused reporters are not part of them.
UniProt Q9UPY3, whole entry, looked up: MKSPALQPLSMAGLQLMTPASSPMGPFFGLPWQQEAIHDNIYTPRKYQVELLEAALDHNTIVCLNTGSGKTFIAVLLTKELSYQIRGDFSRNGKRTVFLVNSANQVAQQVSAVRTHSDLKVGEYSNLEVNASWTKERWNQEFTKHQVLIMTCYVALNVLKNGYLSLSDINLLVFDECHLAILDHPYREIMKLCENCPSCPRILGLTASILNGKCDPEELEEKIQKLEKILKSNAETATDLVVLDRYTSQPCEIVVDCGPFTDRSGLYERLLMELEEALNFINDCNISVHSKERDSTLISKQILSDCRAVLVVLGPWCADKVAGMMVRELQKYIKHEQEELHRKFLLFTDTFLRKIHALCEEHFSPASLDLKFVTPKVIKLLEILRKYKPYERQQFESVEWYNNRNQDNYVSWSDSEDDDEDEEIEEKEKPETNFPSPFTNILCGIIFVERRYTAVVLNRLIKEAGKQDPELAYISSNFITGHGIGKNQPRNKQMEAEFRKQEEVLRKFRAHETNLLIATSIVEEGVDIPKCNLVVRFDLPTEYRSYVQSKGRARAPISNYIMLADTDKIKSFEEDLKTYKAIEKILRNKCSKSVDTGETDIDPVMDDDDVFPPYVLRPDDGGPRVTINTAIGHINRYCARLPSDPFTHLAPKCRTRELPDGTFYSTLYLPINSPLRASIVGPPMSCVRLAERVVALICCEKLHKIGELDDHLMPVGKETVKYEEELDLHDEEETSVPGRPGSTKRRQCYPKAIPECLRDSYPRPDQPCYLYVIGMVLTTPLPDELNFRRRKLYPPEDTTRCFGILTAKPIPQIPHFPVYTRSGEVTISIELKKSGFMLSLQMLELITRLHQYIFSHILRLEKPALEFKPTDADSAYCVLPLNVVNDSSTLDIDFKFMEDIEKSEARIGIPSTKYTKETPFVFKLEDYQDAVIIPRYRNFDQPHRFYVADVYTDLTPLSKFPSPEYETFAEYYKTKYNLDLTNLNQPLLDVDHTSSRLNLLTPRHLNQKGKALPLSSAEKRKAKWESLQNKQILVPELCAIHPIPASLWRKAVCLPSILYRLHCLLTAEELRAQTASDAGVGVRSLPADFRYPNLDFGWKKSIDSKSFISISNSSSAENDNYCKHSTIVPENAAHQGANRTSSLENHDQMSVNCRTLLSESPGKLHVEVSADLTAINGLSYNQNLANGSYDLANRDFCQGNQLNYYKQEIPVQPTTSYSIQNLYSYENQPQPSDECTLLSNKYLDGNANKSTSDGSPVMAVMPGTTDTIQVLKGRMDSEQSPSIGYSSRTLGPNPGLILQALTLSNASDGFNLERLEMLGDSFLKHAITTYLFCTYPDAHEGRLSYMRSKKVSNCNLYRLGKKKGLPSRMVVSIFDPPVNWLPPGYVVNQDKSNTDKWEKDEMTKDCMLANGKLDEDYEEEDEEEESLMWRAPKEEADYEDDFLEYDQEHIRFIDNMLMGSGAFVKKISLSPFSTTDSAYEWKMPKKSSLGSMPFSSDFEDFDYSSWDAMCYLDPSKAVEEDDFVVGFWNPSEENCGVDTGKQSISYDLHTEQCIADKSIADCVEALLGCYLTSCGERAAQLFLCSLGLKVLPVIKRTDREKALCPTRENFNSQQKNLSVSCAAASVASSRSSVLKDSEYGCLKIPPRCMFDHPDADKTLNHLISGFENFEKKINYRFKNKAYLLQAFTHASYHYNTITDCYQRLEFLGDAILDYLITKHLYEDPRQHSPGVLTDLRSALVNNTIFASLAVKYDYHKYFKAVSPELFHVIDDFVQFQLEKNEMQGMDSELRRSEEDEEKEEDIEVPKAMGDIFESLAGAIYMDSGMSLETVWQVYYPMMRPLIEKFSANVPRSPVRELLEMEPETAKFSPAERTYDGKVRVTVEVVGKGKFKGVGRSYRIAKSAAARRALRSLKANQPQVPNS

This is a selection; strong and weak results do not stand in their true shares. Active and inactive are the calls of the source. No stated cut-off is given here; in the data, active means z-score above about 3 (passing the limit was not always enough); inactive means the rest.
Each compound was assayed against Endoribonuclease Dicer (Homo sapiens) (UniProt Q9UPY3) (assay: inhibitors of Dicer pre-microRNA processing, primary screen, biochemical, cat-ELCCA, chemiluminescence (AID 1347074;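 further: plate controls were vehicle for no effect and no enzyme for full effect; higher signal means more uncleaved substrate so more Dicer inhibition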)). Settings: cat-ELCCA pre-miR-21 Dicer processing, at 25 µM, active compounds read high.
For `O=C(O)C1(O)c2ccccc2-c2ccccc21`, the z-score was inactive: -0.26.
With `CN(C)CCOC(=O)C(O)(c1ccccc1)c1ccccc1` the z-score was inactive: 0.11.
For `C=CCN1CCN(CCOC(=O)C(O)(c2ccccc2)c2ccccc2)CC1`, the z-score was inactive: 0.32.
In the case of `C/C1=C2N=C(/C=C3N=C(/C(C)=C4\[N-][C@@](C)([C@@H]5N=C1[C@](C)(CCC(=O)NC[C@@H](C)OP(=O)([O-])O[C@H]1[C@@H](O)[C@@H](n6cnc7cc(C)c(C)cc76)O[C@@H]1CO)[C@H]5CC(N)=O)[C@@](C)(CC(N)=O)[C@@H]4CCC(N)=O)[C@@](C)(CC(N)=O)[C@@H]\3CCC(N)=O)C(C)(C)[C@@H]/2CCC(N)=O.[C-]#N.[Co+3]`, the z-score is reported as inactive: -0.04.
With `CN(C)CCOC(=O)C(O)(c1ccccc1)C1CCCC1` (stereo not given) the z-score was inactive: 0.83.

Source: PubChem BioAssay AID1347074 (Center for Chemical Genomics, University of Michigan, 2019)
